{"source": "paper PMC2859624", "about": "(Progress in neuro-psychopharmacology & biological psychiatry, 2010)", "experiment_in_all_cases": "Competition binding assay with [3H]flunitrazepam", "key": {"[1]": {"target": "human GABAA receptor containing α1 subunit (BZ site) (Homo sapiens, UniProt P14867+P18507)", "conditions": "read-out: Ki α1, transfected HEK 293T, duplicate"}, "[2]": {"target": "human GABAA receptor containing α3 subunit (BZ site) (Homo sapiens, UniProt P18507+P34903)", "conditions": "read-out: Ki α3, transfected HEK 293T, duplicate"}, "[3]": {"target": "human GABAA receptor containing α5 subunit (BZ site) (Homo sapiens, UniProt P18507+P31644)", "conditions": "read-out: Ki α5, transfected HEK 293T, duplicate"}}}
{"molecule": "C#Cc1ccc2c(c1)C(c1ccccc1F)=NC(C)c1c(C(=O)OCC)ncn1-2", "note": "(stereo not drawn) [SH-053-S-CH3-2'F, 8-ethynyl-6-(2-fluorophenyl)-4-methyl-4H-2,5,10b-triaza-benzo[e]azulene-3-carboxylic acid ethyl ester]", "values": [{"measurement": "Ki", "setting": "[1]", "result": 0.468, "unit": "µM"}, {"measurement": "Ki", "setting": "[2]", "result": 0.291, "unit": "µM"}, {"measurement": "Ki", "setting": "[3]", "result": 0.0192, "unit": "µM"}]}
